# In ChEMBL document CHEMBL1130557, “Synthesis and biological evaluation of 14-alkoxymorphinans. 14.1 14-ethoxy-5-methyl substituted indolomorphinans with opioid receptor selectivity” (Bioorg Med Chem Lett, 1997):
# The chains behind the UniProt entries cited, without tags or fusion partners.
# UniProt P41143, whole entry, looked up: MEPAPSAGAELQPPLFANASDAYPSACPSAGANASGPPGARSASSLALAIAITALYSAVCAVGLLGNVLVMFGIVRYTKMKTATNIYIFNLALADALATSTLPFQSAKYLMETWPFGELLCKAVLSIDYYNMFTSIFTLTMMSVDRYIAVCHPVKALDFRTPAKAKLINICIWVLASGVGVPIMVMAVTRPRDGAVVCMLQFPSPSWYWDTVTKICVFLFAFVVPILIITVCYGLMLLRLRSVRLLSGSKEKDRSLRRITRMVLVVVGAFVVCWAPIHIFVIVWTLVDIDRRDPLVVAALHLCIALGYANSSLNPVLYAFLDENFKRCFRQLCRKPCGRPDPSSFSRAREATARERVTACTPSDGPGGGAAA
# UniProt P35372, whole entry, looked up: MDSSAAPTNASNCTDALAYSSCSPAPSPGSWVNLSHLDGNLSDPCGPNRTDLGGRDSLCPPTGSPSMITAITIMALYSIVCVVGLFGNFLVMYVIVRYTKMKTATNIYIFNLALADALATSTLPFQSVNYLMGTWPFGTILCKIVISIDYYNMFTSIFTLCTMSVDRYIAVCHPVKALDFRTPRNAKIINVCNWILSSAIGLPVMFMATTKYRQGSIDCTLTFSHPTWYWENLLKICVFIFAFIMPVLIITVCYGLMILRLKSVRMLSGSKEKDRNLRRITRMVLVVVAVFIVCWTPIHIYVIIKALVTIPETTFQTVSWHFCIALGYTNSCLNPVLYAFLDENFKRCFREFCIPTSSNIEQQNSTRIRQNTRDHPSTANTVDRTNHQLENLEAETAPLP
# Tests used:
# [1] = molecular target: T1, Opioid receptors; mu & delta (Homo sapiens) (UniProt P41143+P35372); test: (§1) Selectivity for mu opioid receptor over delta opioid receptor; assay type: protein assay
# [2] = molecular target: T1, Opioid receptors; mu & delta (Homo sapiens); test: as §1; assay type: protein assay; remark: listed apart in the source
smiles,measurement,setting,value
CCO[C@@]12Cc3c([nH]c4ccccc34)[C@]3(C)Oc4c(O)ccc5c4[C@@]31CCN(CC1CC1)C2C5,Ratio,[1],102
same,Ratio,[2],50
